Data from patent US20250269058A1, “GENE THERAPY FOR TREATING NEURODEGENERATIVE DISEASES” (ABRAIN, priority 2021, published 2025).

Experiments:
[1] = ThT assay of autoaggregation of human Tau 40 WT or Tau inhibitor; format: physicochemical; conditions: 30 μM inhibitor, 8 μM heparin, 50 μM ThT, 37° C., 70 hours
Protocol: (§1) All inhibitor peptides were purchased from Biomatik. Dissolution was performed at a working concentration of 1.2 mM in deionized water, with a minimum purity of 95% or higher. Human Tau 40 WT was expressed by the pQE80 vector in BL21-DE3 E. coli cells grown to OD600=0.8 in LB medium. Cells were induced with 1 mM IPTG for 3 hours at 37° C. and further incubated for 4 hours, and then cultured E. coli cells were harvested by centrifugation at 5,000 rpm for 20 minutes. The obtained E. coli was resuspended in a dissolution buffer (50 mM NaH2PO4, NaCl 250 mM, 10 mM imidazole pH 8.0) and then dissolved by sonication. Cell lysates were purified by centrifugation at 15,000 rpm for 15 minutes, and 1 ml of 50% Ni-NTA slurry was added to 4 ml of the supernatant and shaken at 4° C. for 60 minutes (200 rpm on a rotator) to mix gently. […]
(§2) Autoaggregation of human Tau 40 WT or Tau inhibitor was tested using 15 μM of human Tau 40 WT protein or 30 μM of inhibitor (SEQ ID NOs: 22 or 32), 8 μM heparin, and 50 μM ThT. ThT fluorescence was measured using a Biotek Synergy H1 reader at an excitation wavelength of 440 nm and emission wavelength of 485 nm. The reactions were incubated at 37° C., and measured every 15 minutes for 70 hours with orbital vibration of 425 cpm continuously. […]

human Tau 40 WT = molecular target: T1, human Tau 40 WT (Homo sapiens, UniProt P10636); assay: ThT assay, inhibition of human Tau 40 WT autoaggregation by Tau inhibitor; format: biochemical; conditions: 15 μM Tau protein and 30 μM inhibitor (1:2)
T1 construct: His tag (inferred from Ni-NTA purification and pQE80 vector); made in house; host or cells: E. coli BL21-DE3
Protocol: as §1, §2

B1: MQTAPVPMPDLKNVKSKIGSTENLKHQPGGGDVQPINKKLKLSNVQSKCGSKDNIKHVPGGGSVQPVYDPVDLSKVTSKCGSLGNIHHKPGGGQVEVKSEKLDFKDRVQSKIGSLDNITHVPGGGNKKIE (protein)
chain: MQTAPVPMPDLKNVKSKIGSTENLKHQPGGGDVQPINKKLKLSNVQSKCGSKDNIKHVPGGGSVQPVYDPVDLSKVTSKCGSLGNIHHKPGGGQVEVKSEKLDFKDRVQSKIGSLDNITHVPGGGNKKIE
modifications: Tau inhibitor
[1]
  autoaggregation in ThT assay: did not show autoaggregation during the reaction
Human Tau 40 WT
  inhibition of Tau WT aggregation (competition assay): aggregation of Tau WT was completely attenuated
